From ChEMBL document CHEMBL2390816, “Structure-based optimization of oxadiazole-based GSK-3 inhibitors” (Eur J Med Chem, 2013) come the findings set out here.

Chains of the proteins cited; added tags and fusions are not shown. Lines headed by an entry give the natural chain unless they say otherwise; changes in a name come on top.
UniProt P49841: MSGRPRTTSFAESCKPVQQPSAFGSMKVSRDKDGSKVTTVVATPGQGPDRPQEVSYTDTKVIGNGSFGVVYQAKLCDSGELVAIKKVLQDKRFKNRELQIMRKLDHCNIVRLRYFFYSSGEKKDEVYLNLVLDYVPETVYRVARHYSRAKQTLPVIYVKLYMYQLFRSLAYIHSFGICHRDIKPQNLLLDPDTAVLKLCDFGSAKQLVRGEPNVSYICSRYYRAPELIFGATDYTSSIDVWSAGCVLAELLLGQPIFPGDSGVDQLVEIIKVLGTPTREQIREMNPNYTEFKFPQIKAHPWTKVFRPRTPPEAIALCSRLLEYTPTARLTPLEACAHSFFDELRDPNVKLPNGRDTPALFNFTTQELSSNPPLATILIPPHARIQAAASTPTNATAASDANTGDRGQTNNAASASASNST

This assay has as its target Glycogen synthase kinase-3 beta (Homo sapiens, UniProt P49841). The assay is described as follows: Inhibition of human recombinant GSK3beta using pIRS-1 (RREGGMSRPAS(p)VDG) as substrate assessed as residual activity at 10 uM after 15 mins in presence of 32P[gamma-ATP].

In the case of `O=[N+]([O-])c1ccc(-c2nnc(SCc3ccccc3)o2)cc1`, the Activity is over 50%. To `CCc1ccc(/C=N/NC(=O)c2ccncc2)cc1` belongs over 50%; to `COc1cccc(CSc2nnc(-c3ccc([N+](=O)[O-])cc3)o2)c1`, over 50%. To `COc1ccc(/C=N/NC(=O)c2ccncc2)cc1` belongs over 50%. The same measure for `N#Cc1ccc(-c2nnc(SCc3cccc(C#N)c3)o2)cc1`: over 50%; for `N#Cc1ccccc1-c1ccc(CSc2nnc(-c3ccccc3)o2)cc1`: over 50%; for `c1ccc(CSc2nnc(-c3ccccc3)o2)cc1`: over 50%. With `N#Cc1ccccc1-c1ccc(CSc2nnc(-c3ccc([N+](=O)[O-])cc3)o2)cc1`, the Activity is over 50%.

On to `N#Cc1cccc(CSc2nnc(-c3ccccc3)o2)c1`, for which the Activity is over 50%. To `N#Cc1ccc(-c2nnc(SCc3ccccc3)o2)cc1` belongs over 50%; to `COc1ccc(-c2nnc(SCc3cccc(OC)c3)o2)cc1`, over 50%.

On to `N#Cc1ccc(-c2nnc(SCc3ccc(-c4ccccc4C#N)cc3)o2)cc1`, for which the Activity was over 50%.

Regarding `COc1ccc(-c2nnc(SCc3ccccc3)o2)cc1`, the Activity is over 50%. `COc1ccc(-c2nnc(SCc3ccc(-c4ccccc4C#N)cc3)o2)cc1`: the Activity is over 50%. Take `O=C(N/N=C/c1ccccc1)c1ccncc1`: the Activity was over 50%. To `COc1cccc(CSc2nnc(-c3ccccc3)o2)c1` belongs over 50%. The same measure for `N#Cc1cccc(CSc2nnc(-c3ccc([N+](=O)[O-])cc3)o2)c1`: over 50%; for `COc1ccc(-c2nnc(SCc3cccc(C#N)c3)o2)cc1`: over 50%; for `COc1cccc(CSc2nnc(-c3ccc(C#N)cc3)o2)c1`: over 50%. The same measure for `N#Cc1ccc(/C=N/NC(=O)c2ccncc2)cc1`: over 50%.
